# Test results published in patent US20080312292A1, “Antipruritics” (priority 2002, published 2008).
# Sequences of proteins named here, by UniProt entry; tags and fusion partners are left off.
# UniProt P47746, whole entry: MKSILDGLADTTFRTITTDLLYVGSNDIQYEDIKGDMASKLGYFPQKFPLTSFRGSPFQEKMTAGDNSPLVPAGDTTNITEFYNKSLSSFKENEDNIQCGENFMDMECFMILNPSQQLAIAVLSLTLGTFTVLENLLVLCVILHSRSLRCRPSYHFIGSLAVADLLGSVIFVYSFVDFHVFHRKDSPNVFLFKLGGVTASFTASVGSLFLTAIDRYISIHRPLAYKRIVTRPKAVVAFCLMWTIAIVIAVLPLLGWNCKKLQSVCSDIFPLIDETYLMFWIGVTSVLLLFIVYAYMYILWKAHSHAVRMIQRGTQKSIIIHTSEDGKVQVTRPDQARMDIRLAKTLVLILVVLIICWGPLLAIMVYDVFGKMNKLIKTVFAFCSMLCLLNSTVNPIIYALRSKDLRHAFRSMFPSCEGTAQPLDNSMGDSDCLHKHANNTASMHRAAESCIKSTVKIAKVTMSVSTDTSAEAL
# Biological target: T1, mouse CB1 receptor (Mus musculus, UniProt P47746)
# T1 construct: The membrane fractions of mouse brain and spleen that abundantly express CB1 and CB2 receptor, respectively; from tissue; host or cells: mouse brain membrane fraction (C57BL/6 J)
# Assay: Binding inhibitory activity to mouse cannabinoid receptors, brain membrane fraction
# Set-up: species or system C57BL/6 J mice
compound,measurement,value
"CCCCCc1cc(O)c2c(c1)OC(C)(C)[C@@H]1CCC(C)=C[C@@H]21 [Δ^9-tetrahydrocannabinol, delta-9-tetrahydrocannabinol, reference compound]",Ki,40 nM
